Laboratory results reported in patent US6908919B2, “Substituted polycyclic aryl and heteroaryl pyrazinones useful for selective inhibition of the coagulation cascade” (Pharmacia Corporation, priority 1999, dated 2005).

The chains behind the UniProt entries cited, without tags or fusion partners. Residues count along the entry.
UniProt P00761, 9-231: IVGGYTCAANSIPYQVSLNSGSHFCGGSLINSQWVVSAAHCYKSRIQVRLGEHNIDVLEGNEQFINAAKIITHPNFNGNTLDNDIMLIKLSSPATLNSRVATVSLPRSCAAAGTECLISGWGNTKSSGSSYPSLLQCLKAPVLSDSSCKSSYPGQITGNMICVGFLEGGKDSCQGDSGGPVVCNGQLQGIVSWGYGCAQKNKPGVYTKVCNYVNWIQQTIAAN

Each molecule was assayed against Trypsin (type IX from porcine pancreas) (Sus scrofa, UniProt P00761) (assay: Trypsin Assay). Details: not given.

IC50 | Compound
59 µM | COCCNC(=N)c1ccc(CNC(=O)Cn2c(-c3cccc(N)c3)c(Cl)nc(NC3CCC3)c2=O)cc1 [Example 163]
83 µM | CN(C)CC/N=C(\NCCN(C)C)c1ccc(CNC(=O)Cn2c(-c3cccc(N)c3)c(Cl)nc(NC3CCC3)c2=O)cc1 [Example 165]
81 µM | CN(C)CCNC(=N)c1ccc(CNC(=O)Cn2c(-c3cccc(N)c3)c(Cl)nc(NC3CCC3)c2=O)cc1 [Example 166]

Same assay, conditions: 1 h, read-out: % Inhibition Trpysin II (30 µM)

inhibition at 30 µM | Compound
36% | C/N=C(/NC)c1ccc(CNC(=O)Cn2c(-c3cccc(N)c3)c(Cl)nc(NC3CCC3)c2=O)cc1 [Example 162]
15% | COCC/N=C(\NCCOC)c1ccc(CNC(=O)Cn2c(-c3cccc(N)c3)c(Cl)nc(NC3CCC3)c2=O)cc1 [Example 164]

Same assay, conditions: inhibitor at 100 µM

Compound | % Inhibition Trpysin II (100 µM)
Cc1c(Cl)nc(NCCc2cccc(Cl)c2)c(=O)n1CC(=O)NCCc1ccncc1 [Example E-0003] | 0%
Cc1c(Cl)nc(NCCc2cccnc2)c(=O)n1CC(=O)NCCc1ccncc1 [Example E-0005] | 0%
Cc1c(Cl)nc(NCCN2CCOCC2)c(=O)n1CC(=O)NCCc1ccncc1 [Example E-0007] | 0%
Cc1c(Cl)nc(NCc2ccncc2)c(=O)n1CC(=O)NCCc1ccncc1 [Example E-0008] | 0%
COc1ccc(-c2c(Cl)nc(NCCc3cccnc3)c(=O)n2CC(=O)NCCc2ccncc2)cc1 [Example E-0037] | 2%
COc1ccc(-c2c(Cl)nc(NCCc3ccncc3)c(=O)n2CC(=O)NCCc2ccncc2)cc1 [Example E-0038] | 3%
COc1ccc(-c2c(Cl)nc(NCCN3CCOCC3)c(=O)n2CC(=O)NCCc2ccncc2)cc1 [Example E-0039] | 2%
COc1ccc(-c2c(Cl)nc(NCc3ccncc3)c(=O)n2CC(=O)NCCc2ccncc2)cc1 [Example E-0040] | 4%
O=C(Cn1c(-c2ccc3c(c2)OCO3)c(Cl)nc(NCc2ccccc2)c1=O)NCCc1ccncc1 [Example E-0041] | 2%
O=C(Cn1c(-c2ccc3c(c2)OCO3)c(Cl)nc(NCCc2cccc(Cl)c2)c1=O)NCCc1ccncc1 [Example E-0043] | 3%
O=C(Cn1c(-c2ccc3c(c2)OCO3)c(Cl)nc(NCCc2ccc(Cl)cc2)c1=O)NCCc1ccncc1 [Example E-0044] | 3%
O=C(Cn1c(-c2ccc3c(c2)OCO3)c(Cl)nc(NCCc2cccnc2)c1=O)NCCc1ccncc1 [Example E-0045] | 4%
O=C(Cn1c(-c2ccc3c(c2)OCO3)c(Cl)nc(NCCc2ccncc2)c1=O)NCCc1ccncc1 [Example E-0046] | 4%
O=C(Cn1c(-c2ccc3c(c2)OCO3)c(Cl)nc(NCCN2CCOCC2)c1=O)NCCc1ccncc1 [Example E-0047] | 2%
O=C(Cn1c(-c2ccc3c(c2)OCO3)c(Cl)nc(NCc2ccncc2)c1=O)NCCc1ccncc1 [Example E-0048] | 0%
O=C(Cn1c(Cc2ccccc2)c(Cl)nc(NCCN2CCOCC2)c1=O)NCCc1ccncc1 [Example E-0063] | 0%
COc1ccc(-c2c(Cl)nc(NCc3ccccc3)c(=O)n2CC(=O)NCCc2cccnc2)cc1 [Example E-0098] | 8%
COc1ccc(-c2c(Cl)nc(NCCc3cccc(Cl)c3)c(=O)n2CC(=O)NCCc2cccnc2)cc1 [Example E-0104] | 9%

Other lines, results leading:

% Inhibition Trpysin II (100 µM) | Compound
0% | Cc1c(Cl)nc(NCc2ccccc2)c(=O)n1CC(=O)NCCc1ccncc1 [Example E-0001]
0% | Cc1c(Cl)nc(NCCc2ccccc2)c(=O)n1CC(=O)NCCc1ccncc1 [Example E-0002]
0% | Cc1c(Cl)nc(NCCc2ccc(Cl)cc2)c(=O)n1CC(=O)NCCc1ccncc1 [Example E-0004]
0% | O=C(Cn1c(-c2ccccc2)c(Cl)nc(NCCc2ccccc2)c1=O)NCCc1ccncc1 [Example E-0010]
0% | O=C(Cn1c(-c2ccccc2)c(Cl)nc(NCCc2cccc(Cl)c2)c1=O)NCCc1ccncc1 [Example E-0011]
0% | O=C(Cn1c(-c2ccccc2)c(Cl)nc(NCCc2ccc(Cl)cc2)c1=O)NCCc1ccncc1 [Example E-0012]
0% | O=C(Cn1c(-c2ccccc2)c(Cl)nc(NCCc2ccncc2)c1=O)NCCc1ccncc1 [Example E-0014]
4% | O=C(Cn1c(-c2ccccc2)c(Cl)nc(NCc2ccncc2)c1=O)NCCc1ccncc1 [Example E-0016]
5% | COc1ccc(-c2c(Cl)nc(NCc3ccccc3)c(=O)n2CC(=O)NCCc2ccncc2)cc1 [Example E-0033]
5% | O=C(Cn1c(-c2ccc3c(c2)OCO3)c(Cl)nc(NCCc2ccccc2)c1=O)NCCc1ccncc1 [Example E-0042]
0% | O=C(Cn1c(Cc2ccccc2)c(Cl)nc(NCc2ccccc2)c1=O)NCCc1ccncc1 [Example E-0057]
0% | O=C(Cn1c(Cc2ccccc2)c(Cl)nc(NCCc2ccccc2)c1=O)NCCc1ccncc1 [Example E-0058]
0% | O=C(Cn1c(Cc2ccccc2)c(Cl)nc(NCCc2cccc(Cl)c2)c1=O)NCCc1ccncc1 [Example E-0059]
0% | O=C(Cn1c(Cc2ccccc2)c(Cl)nc(NCCc2ccc(Cl)cc2)c1=O)NCCc1ccncc1 [Example E-0060]
0% | O=C(Cn1c(Cc2ccccc2)c(Cl)nc(NCCc2cccnc2)c1=O)NCCc1ccncc1 [Example E-0061]
0% | O=C(Cn1c(Cc2ccccc2)c(Cl)nc(NCCc2ccncc2)c1=O)NCCc1ccncc1 [Example E-0062]
0% | O=C(Cn1c(Cc2ccccc2)c(Cl)nc(NCc2ccncc2)c1=O)NCCc1ccncc1 [Example E-0064]
0% | O=C(Cn1c(CCc2ccccc2)c(Cl)nc(NCc2ccccc2)c1=O)NCCc1ccncc1 [Example E-0065]
0% | O=C(Cn1c(CCc2ccccc2)c(Cl)nc(NCCc2ccccc2)c1=O)NCCc1ccncc1 [Example E-0066]
0% | O=C(Cn1c(CCc2ccccc2)c(Cl)nc(NCCc2cccc(Cl)c2)c1=O)NCCc1ccncc1 [Example E-0067]
0% | O=C(Cn1c(CCc2ccccc2)c(Cl)nc(NCCc2ccc(Cl)cc2)c1=O)NCCc1ccncc1 [Example E-0068]
0% | O=C(Cn1c(CCc2ccccc2)c(Cl)nc(NCCc2cccnc2)c1=O)NCCc1ccncc1 [Example E-0069]
0% | O=C(Cn1c(CCc2ccccc2)c(Cl)nc(NCCc2ccncc2)c1=O)NCCc1ccncc1 [Example E-0070]
0% | O=C(Cn1c(CCc2ccccc2)c(Cl)nc(NCCN2CCOCC2)c1=O)NCCc1ccncc1 [Example E-0071]
0% | O=C(Cn1c(CCc2ccccc2)c(Cl)nc(NCc2ccncc2)c1=O)NCCc1ccncc1 [Example E-0072]
